Measured values published in patent US20030224036A1, “Hla class I a2 tumor associated antigen peptides and vaccine compositions” (priority 1999, published 2003).
Read-outs that look alike come from different tables or passages of the source.

Assays:
[1] = tested on: human T cells (PBMC); assay: In vitro primary immunization of normal human PBMC, T cell proliferation (3H-thymidine incorporation); assay type: cell-based
[2] = tested on: HLA-DR molecules; details: cited from earlier work

| Substance | antigen concentration at which the 10,000 cpm proliferation level was reached [1] | donors with primary T cell responses [1] | number of the most prevalent HLA-DR molecules bound / tested [2] | potency relative to TT 830-843 antigen for activation of T cell responses, molar basis [1] | donors with primary T cell responses ([1]; three normal donors, third round of stimulation) |
| --- | --- | --- | --- | --- | --- |
| QYIKANSKFIGITE [TT 830-843, reference compound] | about 10,000 ng/ml | 2 out of 3 | seven of 16 | – | – |
| aKXVAAWTLKAAa-NH2 [PADRE, a=D-alanine, X=cyclohexylalanine] | – | – | – | about 100 fold | all three |
